Assay results taken from article PMC4501059, “Responding to the challenge of untreatable gonorrhea: ETX0914, a first-in-class agent with a distinct mechanism-of-action against bacterial Type II topoisomerases” (Scientific Reports, 2015).

System: S. aureus (ARC516, ATCC33591, USA100 NRS382, USA300 NRS384)

Compound | fAUC/MIC, Stasis (USA300 NRS384, Mean ± Standard error of the Mean) | range of fAUC/MIC PK/PD target (stasis, four S. aureus isolates, mouse thigh model) | mean fAUC/MIC PK/PD target (stasis, mean of four S. aureus isolates, mouse thigh model) | PK/PD magnitude (fAUC/MIC) in preclinical model, Measured, Stasis (S. aureus neutropenic thigh model, Mean ± Standard error of the Mean)
C[C@@H]1CN2c3c(cc4c(N5C(=O)OC[C@@H]5C)noc4c3F)CC3(C(=O)NC(=O)NC3=O)[C@H]2[C@H](C)O1 [ETX0914] | 80 ± 5 | 43–98 | 66 | 
CC(=O)NC[C@H]1CN(c2ccc(N3CCOCC3)c(F)c2)C(=O)O1 [Linezolid] |  |  |  | Stasis: 66 ± 25
